We go through one molecule from publication PMC8563940 (Scientific Reports, 2021).

Amino acid sequences for entries named in this document (tags omitted). Residues count along the entry.
UniProt P22303, 32-614: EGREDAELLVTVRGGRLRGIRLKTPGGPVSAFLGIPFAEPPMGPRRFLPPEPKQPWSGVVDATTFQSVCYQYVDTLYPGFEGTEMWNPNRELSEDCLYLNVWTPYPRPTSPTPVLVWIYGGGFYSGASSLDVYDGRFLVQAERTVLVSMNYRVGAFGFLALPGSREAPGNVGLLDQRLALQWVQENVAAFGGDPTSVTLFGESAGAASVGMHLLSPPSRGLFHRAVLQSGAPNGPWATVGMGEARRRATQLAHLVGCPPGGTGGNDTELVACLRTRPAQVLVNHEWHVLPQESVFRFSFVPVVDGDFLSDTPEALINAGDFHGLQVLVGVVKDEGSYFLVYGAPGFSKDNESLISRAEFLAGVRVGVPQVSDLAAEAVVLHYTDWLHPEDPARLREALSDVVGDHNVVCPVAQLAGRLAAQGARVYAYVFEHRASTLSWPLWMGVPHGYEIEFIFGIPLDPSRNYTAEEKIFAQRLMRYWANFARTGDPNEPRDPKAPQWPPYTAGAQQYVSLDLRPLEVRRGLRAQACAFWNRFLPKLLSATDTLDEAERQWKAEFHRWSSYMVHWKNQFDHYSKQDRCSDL
UniProt P06276, 29-602: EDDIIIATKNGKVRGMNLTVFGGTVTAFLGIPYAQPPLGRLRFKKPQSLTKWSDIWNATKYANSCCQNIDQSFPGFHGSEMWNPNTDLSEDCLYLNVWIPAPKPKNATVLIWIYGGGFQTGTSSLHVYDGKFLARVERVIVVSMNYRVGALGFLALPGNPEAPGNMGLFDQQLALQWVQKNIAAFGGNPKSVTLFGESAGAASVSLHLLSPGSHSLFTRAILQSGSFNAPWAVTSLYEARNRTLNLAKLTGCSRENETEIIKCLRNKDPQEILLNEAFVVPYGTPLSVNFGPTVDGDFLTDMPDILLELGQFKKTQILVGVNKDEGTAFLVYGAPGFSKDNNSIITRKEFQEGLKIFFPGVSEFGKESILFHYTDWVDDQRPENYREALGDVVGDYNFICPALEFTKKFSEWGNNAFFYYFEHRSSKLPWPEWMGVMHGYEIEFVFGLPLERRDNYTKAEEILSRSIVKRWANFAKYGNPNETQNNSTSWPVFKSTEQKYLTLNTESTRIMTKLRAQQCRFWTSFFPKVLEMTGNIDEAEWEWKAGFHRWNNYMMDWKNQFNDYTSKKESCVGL

Assay [1] addresses T1, human acetylcholinesterase (hAChE) (Homo sapiens, UniProt P22303).
T1 construct: made in house
Briefly: Progressive inhibition of hAChE by organophosphorus pesticides (Ellman method). Format: biochemical. On the technique in general: In Ellman's method for cholinesterases, released thiocholine reacts with DTNB.

The target of assay [2] is T2, human butyrylcholinesterase (hBChE) (Homo sapiens, UniProt P06276).
T2 construct: hBChE derived from purified human plasma; from tissue; host or cells: human plasma
Briefly: Progressive inhibition of hBChE by organophosphorus pesticides (Ellman method). Format: biochemical. As to conditions: 25 °C, ± SEM, read-out: ki, overall second-order rate constant of inhibition (converted).

Regarding `CCCSP(=O)(OCC)SCCC` [Ethoprophos, ethoprophos], in assay [1] (hAChE), the “ki above the rate for fenamiphos” value came out at 16 fold; the “ki higher than that of phosalone and methamidophos” value is recorded as “approximately 30 fold”. The “more effective in hAChE inhibition than in BChE inhibition” value in assay [1] (hAChE vs BChE) is given as 4 times. For the same molecule, the kinact/KI in assay [1] (hAChE, 25 °C, ± SEM, read-out: ki, overall second-order rate constant of inhibition (converted)) is 1080 M⁻¹ s⁻¹. Moreover, in assay [2], the kinact/KI was 264 M⁻¹ s⁻¹.
